Several values for one entry are separate records, joined by “and”; a condition that tells them apart may be missing. Identical values can stand only once. This is a selection; strong and weak results do not stand in their true shares. Inconclusive results are not listed. Activity calls are given as the source filed them. Unless noted, the call rests on the fitted dose curve; in most records, active means well fitted curve in the direction sought with a large enough effect in the repeat runs; inconclusive means weak or mixed curves; inactive means no such curve, though single readings can be large; an effect the other way counts as inactive or inconclusive.
Experiments:
[1] = qHTS assay for small molecules that induce genotoxicity in human embryonic kidney cells expressing luciferase-tagged ATAD5 (AID 651632); conditions: HEK293T ATAD5-luciferase induction, 16 h; at 83.3 µM (top of the series) unless noted; further: nearly all actives have a fitted effect of over 15% in size
Method in brief: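 Luminescence read-out: after 16 hr compound exposure at 37C, ATAD5-luciferase HEK293T cells received Amplite, 30 min RT, then CCD imaging. A rise in signal marks genotoxic stress.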

By UniProt entry, the sequences of proteins in these tests, tags left out. Where a name states a change or a piece, a line headed by the entry shows the natural chain unless it says otherwise.
UniProt P04150: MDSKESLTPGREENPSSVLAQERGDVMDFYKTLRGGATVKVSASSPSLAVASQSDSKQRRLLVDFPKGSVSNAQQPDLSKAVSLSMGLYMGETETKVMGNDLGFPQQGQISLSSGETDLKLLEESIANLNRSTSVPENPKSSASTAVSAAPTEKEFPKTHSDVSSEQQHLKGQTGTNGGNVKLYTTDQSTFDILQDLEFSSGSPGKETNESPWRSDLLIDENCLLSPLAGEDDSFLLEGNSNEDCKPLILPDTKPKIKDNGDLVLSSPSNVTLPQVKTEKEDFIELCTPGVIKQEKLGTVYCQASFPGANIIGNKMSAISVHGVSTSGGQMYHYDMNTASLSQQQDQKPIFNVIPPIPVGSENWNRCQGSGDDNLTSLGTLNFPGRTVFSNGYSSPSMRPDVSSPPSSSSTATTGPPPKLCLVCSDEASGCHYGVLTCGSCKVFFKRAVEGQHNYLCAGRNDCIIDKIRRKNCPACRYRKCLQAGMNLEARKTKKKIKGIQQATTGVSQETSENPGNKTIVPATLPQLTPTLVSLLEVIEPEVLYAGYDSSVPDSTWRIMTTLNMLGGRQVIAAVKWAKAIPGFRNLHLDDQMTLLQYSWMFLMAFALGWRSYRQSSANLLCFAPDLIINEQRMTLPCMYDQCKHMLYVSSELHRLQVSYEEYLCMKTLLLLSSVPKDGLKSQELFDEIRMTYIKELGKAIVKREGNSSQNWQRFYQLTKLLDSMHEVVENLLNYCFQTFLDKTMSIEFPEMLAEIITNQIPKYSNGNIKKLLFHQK

[2] = qHTS assay for small molecule agonists of the p53 signaling pathway - cell viability (AID 651633; calls by dose curve;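 further: p53RE-bla HCT reporter cells with a stable beta-lactamase p53 reporter; nearly all actives have a fitted effect of over 30% in size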); conditions: p53RE-bla HCT-116 viability, ATP luminescence, 16 h; at 83.3 µM (top of the series) unless noted
Method in brief: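 Viability counter-read: CellTiter-Glo luminescence (30 min, room temperature) in the same p53RE-bla plates. These plates had been exposed to compounds for 16 h at 37 C.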

[3] = qHTS assay for small molecules that induce genotoxicity in human embryonic kidney cells expressing luciferase-tagged ATAD5 - cell viability (AID 651634; calls by dose curve; further: nearly all actives have a fitted effect of over 25% in size)
Method in brief: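 HEK293T ATAD5-luc cells, 2,000/well; compound 15.5 hr, 37C/5% CO2; CellTiter-Fluor 30 min, 37C; fluorescence read.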

[4] = qHTS assay to test for compound auto fluorescence at 535 nm (green) in HepG2 cells (AID 720675); conditions: green autofluorescence 485/535 nm, 1 h; at 91.3 µM (top of the series) unless noted
[5] = qHTS assay to test for compound auto fluorescence at 460 nm (blue) in HEK293 cells (AID 720678); conditions: blue autofluorescence 405/460 nm; at 91.3 µM (top of the series) unless noted
Method in brief: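 Blue-channel (Ex/Em 405/460 nm) intensity measured in HEK293 cultures after overnight compound exposure at 37C; signal expressed relative to triamterene. Cells plated 2,000 per well in 10% dialyzed FBS medium and allowed 4-5 hr to attach.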

[6] = qHTS assay to test for compound auto fluorescence at 590 nm (red) in HEK293 cells (AID 720679); conditions: red autofluorescence 540/590 nm; at 91.3 µM (top of the series) unless noted
Method in brief: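 Red-channel autofluorescence (Ex/Em 540/590 nm; Rose Bengal sodium reference) was measured after overnight 37C, 5% CO2 exposure of attached HEK293 cells, 2,000 per well in medium with 10% dialyzed FBS.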

[7] = qHTS assay to test for compound auto fluorescence at 535 nm (green) in HEK293 cells (AID 720680); conditions: green autofluorescence 485/535 nm; at 91.3 µM (top of the series) unless noted
[8] = qHTS assay to test for compound auto fluorescence at 460 nm (blue) in HEK293 cell free culture (AID 720681); conditions: cell-free medium, autofluorescence 405/460 nm (blue); at 91.3 µM (top of the series) unless noted
Method in brief: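 Blue fluorescence (Ex 405/Em 460 nm, triamterene-equivalent) was read immediately after pin transfer of compound or DMSO into medium (DMEM, 10% FBS) without cells.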

[9] = qHTS assay to test for compound auto fluorescence at 535 nm (green) in HEK293 cell free culture (AID 720682); conditions: cell-free medium, green autofluorescence 485/535 nm, stronger effect = higher value; at 91.3 µM (top of the series) unless noted
Method in brief: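 Intrinsic compound fluorescence is measured in culture medium containing 10% FBS, with excitation at 485 nm and detection at 535 nm, referenced to fluorescein.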

[10] = qHTS assay to test for compound auto fluorescence at 590 nm (red) in HEK293 cell free culture (AID 720683); conditions: cell-free medium autofluorescence, Ex540/Em590 red; at 91.3 µM (top of the series) unless noted
Method in brief: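 Red-channel autofluorescence of compounds in culture medium (DMEM, 10% FBS), no cells, measured at 540/590 nm. Rose Bengal sodium is the reference fluorophore for equivalence.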

[11] = qHTS assay to test for compound auto fluorescence at 590 nm (red) in HepG2 cell free culture (AID 720684); conditions: cell-free medium autofluorescence, red 540/590 nm; at 91.3 µM (top of the series) unless noted
[12] = qHTS assay to test for compound auto fluorescence at 460 nm (blue) in HepG2 cell free culture (AID 720685); conditions: Cell-free culture medium, blue autofluorescence 405/460 nm; at 91.3 µM (top of the series) unless noted
Method in brief: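 Cell-free plates of MEM plus 10% FBS received 23 nL compound or DMSO vehicle; blue-channel (405/460 nm) intensity scored against triamterene as reference fluorophore.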

[13] = qHTS assay to test for compound auto fluorescence at 535 nm (green) in HepG2 cell free culture (AID 720686); conditions: Cell-free medium, green autofluorescence 485/535 nm; at 91.3 µM (top of the series) unless noted
[14] = biological target: Glucocorticoid receptor (Homo sapiens) (UniProt P04150); assay: qHTS assay to identify small molecule agonists of the glucocorticoid receptor (GR) signaling pathway (AID 720691; active means well fitted activation curve with a large enough effect in the signal ratio in the repeat runs, not every such curve was filed as active; the % refers to the signal ratio); conditions: GR-bla HeLa, beta-lactamase reporter ratio, 18 h; at 62.4 µM (top of the series) unless noted
[15] = biological target: Glucocorticoid receptor (Homo sapiens) (UniProt P04150); assay: qHTS assay to identify small molecule antagonists of the glucocorticoid receptor (GR) signaling pathway (AID 720692; active means well fitted inhibition curve with a large enough effect in the signal ratio in the repeat runs, not every such curve was filed as active; the % refers to the signal ratio); conditions: GR-bla HeLa, beta-lactamase FRET ratio, dexamethasone-stimulated, 18 h; at 58.5 µM (top of the series) unless noted
[16] = qHTS assay to identify small molecule antagonists of the glucocorticoid receptor (GR) signaling pathway - cell viability counter screen (AID 720693); further: nearly all actives have a fitted effect of over 55% in size; further: potency means the concentration at half of the fitted maximal effect
[17] = qHTS assay for identifying genotoxic compounds that show differential cytotoxicity against isogenic chicken DT40 cell lines with known DNA damage response pathways - wild type cell line (AID 743012); further: nearly all actives have a fitted effect of over 60% in size; further: potency means the concentration at half of the fitted maximal effect
Method in brief: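 CellTiter-Glo luminescence readout of viability in wild type DT40 cells after 40 h compound exposure at 37 C/5% CO2; 300 cells/well; reagent incubated 30 min at room temperature before reading.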

[18] = qHTS assay for identifying genotoxic compounds that show differential cytotoxicity against isogenic chicken DT40 cell lines with known DNA damage response pathways - Rev3 mutant cell line (AID 743014); further: nearly all actives have a fitted effect of over 55% in size; further: potency means the concentration at half of the fitted maximal effect
[19] = qHTS assay for identifying genotoxic compounds that show differential cytotoxicity against isogenic chicken DT40 cell lines with known DNA damage response pathways - Rad54/Ku70 mutant cell line (AID 743015); further: nearly all actives have a fitted effect of over 60% in size; further: potency means the concentration at half of the fitted maximal effect
[20] = qHTS assay for small molecule disruptors of the mitochondrial membrane potential (AID 720635); further: potency means the concentration at half of the fitted maximal effect
On the % scale 0 is the no-effect control and ±100 the full control effect.

SMILES	activation [1]	activity change, negative = cytotoxicity [2]	Potency [3]	fluorescence, % of fluorescein control [4]	fluorescence, % of triamterene [5]	fluorescence, % of fluorescent control [6]	fluorescence, % of fluorescein [7]	fluorescence, % of fluorescent control [8]	activity change [9]	fluorescence, % of fluorescent control [10]	fluorescence, % of Rose Bengal [11]	fluorescence, % of fluorescent control [12]	fluorescence, % of fluorescein control [13]	activation [14]	activity change, negative = inhibition [15]	Potency [16]	Potency [17]	Potency [18]	Potency [19]	Potency [20]
ClP(Cl)c1ccccc1	inactive: 0.141%	inactive: -11.4%	inactive	inactive: 0.0108%	inactive: -0.207%	inactive: -0.327%	inactive: 0.0754%	inactive: -0.0892%	inactive: -0.051%	inactive: -0.0847%	inactive: -0.166%	inactive: -0.0113%	inactive: 0.0186%	inactive: 1.18%	inactive: -0.498%	inactive	inactive	inactive	inactive	
COC(=O)Cl	inactive: 1.15%	inactive: 19.2%	inactive	inactive: 0.0166%	inactive: 0.0188%	inactive: -0.282%	inactive: 0.017%	inactive: 0.134%	inactive: -0.0127%	inactive: 0.323%	inactive: 0.057%	inactive: 0.0564%	inactive: 0.0153%	inactive: -0.134%	inactive: 0.0112%	inactive	inactive	inactive	inactive	inactive
Cc1cc([N+](=O)[O-])c(O)c([N+](=O)[O-])c1	inactive: -8.75% [at 95.3 µM]	inactive: -7.86% [at 95.3 µM]		inactive: -0.634%	inactive: -0.928%	inactive: 0.0659%	inactive: -0.485%	inactive: -0.964%	inactive: -0.494%	inactive: -0.415%	inactive: 0.0416%	inactive: -0.813%	inactive: -0.504%	inactive: 1.83% [at 79.2 µM]		inactive			active: 55 µM	active: 21.9 µM
COP(=S)(Cl)OC	inactive: -3.79% [at 95.3 µM]	inactive: 12.3% [at 95.3 µM]	inactive	inactive: -0.271%	inactive: -0.0482%	inactive: 0.155%	inactive: -0.134%	inactive: -0.383%	inactive: -0.236%	inactive: -0.136%	inactive: -0.05%	inactive: -0.341%	inactive: -0.155%	inactive: -2.06% [at 79.2 µM]	inactive: -28.3% [at 78.9 µM]	inactive	inactive	active: 61.7 µM		
CN(C(=O)Cc1cccc2occc12)[C@H]1CC[C@@]2(CCCO2)C[C@@H]1N1CCCC1	inactive: 2.98%	inactive: 4.09%	inactive	inactive: 0.0081%	inactive: 0.0146%	inactive: 0.0379%	inactive: 0.118%	inactive: 0.0387%	inactive: 0.0971%	inactive: 0.275%	inactive: 0.449%	inactive: 0.103%	inactive: -0.0092%	inactive: -2.22%	inactive: -0.169%	inactive				
CN(N=O)C(=N)N[N+](=O)[O-]		inactive: 18.2%	inactive	inactive: 0.0278%	inactive: 0.0363%	inactive: -0.258%	inactive: -0.0339%	inactive: -0.0522%	inactive: -0.0225%		inactive: -0.281%	inactive: -0.0049%	inactive: -0.0048%	inactive: -4.74%	inactive: 5.51%	inactive	active: 27.1 µM	active: 1.21 µM		
O=C1C2CC=CCC2C(=O)N1SC(Cl)(Cl)C(Cl)Cl (centres undefined)				inactive: 0.0917% and inactive: -0.0077%	inactive: 0.142% and inactive: 0.255%	inactive: -0.366% and inactive: 0.101%	inactive: -0.0568% and inactive: 0.0242%	inactive: 0.0036% and inactive: 0.269%	inactive: -0.0102% and inactive: 0.013%	inactive: -0.0411% and inactive: 0.0291%	inactive: -0.0006% and inactive: -0.0481%	inactive: -0.102% and inactive: -0.11%	inactive: 0.0386% and inactive: 0.038%			active: 11 µM and active: 3.89 µM	active: 27.5 nM and active: 1.7 nM	active: 0.0039 µM	active: 61.6 nM and active: 5.4 nM	

— PubChem BioAssay (Tox21)
